Results on 1 compound are retold here after ChEMBL document CHEMBL5143617 (Eur J Med Chem, 2022).

Sequences of proteins named here, by UniProt entry; tags and fusion partners are left off. A change or cut given only in a name is not applied to a line headed by its entry.
UniProt Q9Y233: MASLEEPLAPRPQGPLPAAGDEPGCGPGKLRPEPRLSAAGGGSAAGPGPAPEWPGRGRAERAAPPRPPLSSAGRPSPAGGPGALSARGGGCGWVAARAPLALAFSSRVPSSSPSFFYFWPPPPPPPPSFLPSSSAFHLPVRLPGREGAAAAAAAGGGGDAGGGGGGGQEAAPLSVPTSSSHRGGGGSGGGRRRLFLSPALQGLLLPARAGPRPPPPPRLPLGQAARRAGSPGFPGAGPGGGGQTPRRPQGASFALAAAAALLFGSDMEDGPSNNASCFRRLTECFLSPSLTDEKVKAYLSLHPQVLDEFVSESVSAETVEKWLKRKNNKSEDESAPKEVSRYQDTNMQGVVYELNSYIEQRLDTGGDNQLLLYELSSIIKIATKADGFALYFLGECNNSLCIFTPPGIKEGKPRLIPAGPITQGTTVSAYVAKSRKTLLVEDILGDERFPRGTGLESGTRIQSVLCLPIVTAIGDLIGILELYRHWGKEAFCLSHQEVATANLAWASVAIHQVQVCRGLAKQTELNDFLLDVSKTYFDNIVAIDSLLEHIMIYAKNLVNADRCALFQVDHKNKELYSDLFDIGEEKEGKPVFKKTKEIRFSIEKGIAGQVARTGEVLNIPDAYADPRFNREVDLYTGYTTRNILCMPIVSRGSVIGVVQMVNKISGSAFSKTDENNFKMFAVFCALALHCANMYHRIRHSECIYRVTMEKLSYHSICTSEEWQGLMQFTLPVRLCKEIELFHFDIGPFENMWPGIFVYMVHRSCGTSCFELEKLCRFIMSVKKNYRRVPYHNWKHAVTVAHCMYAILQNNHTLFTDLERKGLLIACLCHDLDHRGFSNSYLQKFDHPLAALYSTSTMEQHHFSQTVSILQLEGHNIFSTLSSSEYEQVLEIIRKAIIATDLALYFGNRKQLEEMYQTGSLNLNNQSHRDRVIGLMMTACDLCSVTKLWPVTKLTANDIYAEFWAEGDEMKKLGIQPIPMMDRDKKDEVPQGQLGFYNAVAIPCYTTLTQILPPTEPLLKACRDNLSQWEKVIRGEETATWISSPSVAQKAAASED

This assay addresses cAMP and cAMP-inhibited cGMP 3',5'-cyclic phosphodiesterase 10A (Homo sapiens, UniProt Q9Y233). The assay is described as follows: Inhibition of PDE10A (unknown origin) preincubated for 20 mins followed by substrate addition and measured after 1 hr by PEDlight AMP detection reagent based luminescence assay.

Counter-ions that a name gives are not always drawn.

`COc1ccc(Cc2nccc3cc(OC)c(OC)cc23)cc1OC` [PAPAVERINE HYDROCHLORIDE] had a half-maximal inhibitory concentration (IC50) of 3.16 µM.
